{"source": "ChEMBL document CHEMBL2202967", "about": "“Synthesis, characterization and biological evaluation of ureidofibrate-like derivatives endowed with peroxisome proliferator-activated receptor activity” (J Med Chem, 2012)", "note": "Calls of active or inactive are those of the source. The calls are words filed in the database; no cut-off is given here.", "data": [{"biological_target": "T1, Peroxisome proliferator-activated receptor alpha (Homo sapiens) (UniProt Q07869)", "T1 sequence (whole entry)": "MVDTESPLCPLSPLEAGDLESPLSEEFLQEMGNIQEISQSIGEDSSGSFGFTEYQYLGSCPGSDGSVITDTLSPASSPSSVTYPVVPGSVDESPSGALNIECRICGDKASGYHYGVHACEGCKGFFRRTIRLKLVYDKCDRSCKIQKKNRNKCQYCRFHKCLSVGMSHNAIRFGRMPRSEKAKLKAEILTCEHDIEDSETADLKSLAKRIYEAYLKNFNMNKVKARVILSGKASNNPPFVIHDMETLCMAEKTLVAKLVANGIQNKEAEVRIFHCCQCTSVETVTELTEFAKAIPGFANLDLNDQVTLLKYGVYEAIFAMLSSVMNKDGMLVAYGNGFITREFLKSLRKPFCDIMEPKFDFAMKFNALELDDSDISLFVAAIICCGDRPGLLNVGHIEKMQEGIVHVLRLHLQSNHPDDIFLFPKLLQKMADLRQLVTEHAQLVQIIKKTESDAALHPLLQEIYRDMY", "test": "Agonist activity at human GAL4-fused PPARalpha ligand binding domain expressed in HepG2 cells after 20 hrs by luciferase reporter gene transactivation assay relative to WY14643", "type": "cell-based", "values": [{"compound": "CCCCCCCN(CCc1ccc(O[C@H](Cc2ccccc2)C(=O)O)cc1)c1nc2ccccc2o1.NC1CCCCC1", "Emax": "26%"}, {"compound": "CCCc1c(OCCCOc2ccc(OCC(=O)O)cc2)ccc(C(C)=O)c1O", "Emax": "inactive"}, {"compound": "CCCCCCCN(CCc1ccc(O[C@@H](Cc2ccccc2)C(=O)O)cc1)c1nc2ccccc2o1.NC1CCCCC1", "Emax": "inactive"}]}]}
